Measurements reported in patent publication US20230167200A1 (BIOTHEUS, published 2023).

Assays:
[1] = target: anti-PD-1/TIGIT/human serum albumin trispecific antibody Bi-70-71; experiment: BLI (Octet), biotinylated human PD-1 on SA sensor, antibody 100 nM, then TIGIT, then HSA
[2] = target: anti-PD-1/TIGIT/human serum albumin trispecific antibody Bi-72-73; experiment: as above

B1: biotinylated-labeled human PD-1 (ACROBiosystems) (receptor, UniProt Q15116 25-167, looked up)
chain: LDSPDRPWNPPTFSPALLVVTEGDNATFTCSFSNTSESFVLNWYRMSPSNQTDKLAAFPEDRSQPGQDCRFRVTQLPNGRDFHMSVVRARRNDSGTYLCGAISLAPKAQIKESLRAELRVTERRAEVPTAHPSPSPRPAGQFQ
modifications: biotinylated
notes: Bought protein, loaded on the SA sensor
B1: binds [1]; binds [2].
